Reference: patent publication US8138178B2, “Cyclic inhibitors of 11beta-hydroxysteroid dehydrogenase 1” (Vitae Pharmaceuticals, Inc., priority 2008, dated 2012)

Amino acid sequences for entries named in this document (tags omitted).
UniProt P33261, whole entry: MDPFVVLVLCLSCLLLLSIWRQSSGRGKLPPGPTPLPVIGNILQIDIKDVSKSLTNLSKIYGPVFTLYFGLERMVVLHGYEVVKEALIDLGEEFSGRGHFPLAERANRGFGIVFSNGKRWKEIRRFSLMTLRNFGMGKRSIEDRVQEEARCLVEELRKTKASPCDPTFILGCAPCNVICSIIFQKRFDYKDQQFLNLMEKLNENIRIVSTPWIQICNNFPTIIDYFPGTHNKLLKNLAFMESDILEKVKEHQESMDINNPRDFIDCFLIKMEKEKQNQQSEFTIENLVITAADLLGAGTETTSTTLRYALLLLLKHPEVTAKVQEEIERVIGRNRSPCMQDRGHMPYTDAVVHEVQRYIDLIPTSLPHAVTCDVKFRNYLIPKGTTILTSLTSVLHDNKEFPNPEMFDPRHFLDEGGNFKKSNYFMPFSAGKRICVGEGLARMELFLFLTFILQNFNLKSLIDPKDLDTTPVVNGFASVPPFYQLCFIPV

Biological target: human recombinant cytochrome P450 2C19 (Homo sapiens, UniProt P33261)
Assay: biochemical

COC[C@]1(c2ccccc2)CCN([C@@H](C)c2ccc(-c3ccc(=O)n(C)c3)cc2)C(=O)O1 [Example 77, (R)-6-Methoxymethyl-3-{(S)-1-[4-(1-methyl-6-oxo-1,6-dihydro-pyridin-3-yl)-phenyl]-ethyl}-6-phenyl-[1,3]oxazinan-2-one]
IC50: 34 µM
